Laboratory results published in ChEMBL document CHEMBL3259600, “Synthesis and biological evaluation of some new pyrazoline substituted benzenesulfonylurea/thiourea derivatives as anti-hyperglycaemic agents and aldose reductase inhibitors” (Eur J Med Chem, 2014).

Biological target: Aldo-keto reductase family 1 member B1 (Rattus norvegicus, UniProt P07943)
Assay: Inhibition of aldose reductase in rat lens by spectrophotometer analysis
In short: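 Crude enzyme from rat lens homogenized in 9 volumes 100 mM potassium phosphate pH 6.2, spun 15,000 × g for 30 min at 4 °C, supernatant used. Assay in 50 mM potassium phosphate pH 6.2 with 0.4 M lithium sulphate, 5 mM β-mercaptoethanol, 10 mM DL-glyceraldehyde, 0.1 mM NADPH, at 37 °C. DMSO-dissolved compound preincubated 5 min, reaction started with NADPH, read spectrophotometrically, triplicate. IC50 by non-linear regression of % inhibition vs log concentration.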

O=C1NC(=O)[C@@]2(CCOc3ccc(F)cc32)N1 [SORBINIL]
IC50: 8 µM
